Data on one compound can be found in paper PMC5843908, “Detection of PRMT1 inhibitors with stopped flow fluorescence” (Signal Transduction and Targeted Therapy, 2018).

The chains behind the UniProt entries cited, without tags or fusion partners. Residues count along the entry.
UniProt Q99873, 29-371: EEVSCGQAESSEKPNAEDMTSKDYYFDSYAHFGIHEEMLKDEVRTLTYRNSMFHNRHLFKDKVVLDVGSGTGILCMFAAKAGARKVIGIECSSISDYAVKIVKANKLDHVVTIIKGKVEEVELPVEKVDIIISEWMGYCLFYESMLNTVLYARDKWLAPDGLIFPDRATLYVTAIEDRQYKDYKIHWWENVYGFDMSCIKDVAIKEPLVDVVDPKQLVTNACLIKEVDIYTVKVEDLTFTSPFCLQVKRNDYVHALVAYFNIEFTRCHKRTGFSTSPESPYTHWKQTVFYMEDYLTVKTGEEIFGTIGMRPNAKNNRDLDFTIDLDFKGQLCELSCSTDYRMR

For this assay, the target named is PRMT1 (Homo sapiens, UniProt Q99873). The experiment in a line: Stopped flow fluorescence assay of PRMT1 inhibition ([PRMT1] 0.2 µM, [SAM] 3.5 µM, [H4FL] 0.4 µM).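 Also: Stopped-flow traces of fluorescent H4FL peptide quenched on binding PRMT1 and restored on release, recorded 900 s, averaged over repeated drives and fit to a double-exponential model.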 The format is biochemical.

`Nc1ncnc2c1ncn2[C@@H]1O[C@H](CSCC[C@H](N)C(=O)O)[C@@H](O)[C@H]1O` [SAH, S-adenosyl homocysteine]: the “a·k1 (slope of Phase I)” value was determined as 0.0171 ± 4.08e-05 s⁻¹ ([SAH] 5 µM) and 0.0163 ± 5.57e-05 s⁻¹ ([SAH] 10 µM).
